Assay results reported in patent EP4834330A1, “INJECTABLE DEPOT COMPOSITION COMPRISING ENAVOGLIFLOZIN AND LOW-DOSE LIRAGLUTIDE” (dated 2026).

Key:
[1] = tested on: obesity-induced rat model; test: anti-obesity effectiveness: body weight reduction rate in obesity-induced rat model; details: compared to G1 (vehicle), Fig. 1; male SD rats, high-fat diet 13 weeks, S.C for 4 weeks; Enavogliflozin 0.30 mg/kg once a day; Saxenda: Liraglutide 0.31 mg/kg once a day; Prep. Ex. 1(2W): ENAVO 5.32 + LIRA 2.17 mg/kg once every 2 weeks; 2(2W): ENAVO 4.20 + LIRA 2.17 mg/kg once every 2 weeks; 2(4W): ENAVO 8.40 + LIRA 4.34 mg/kg once every 4 weeks
[2] = tested on: obesity-induced rat model; test: body composition analysis (body fat mass and muscle mass) in obesity-induced rat model; details: mean; male SD rats fed 60% HFD, S.C for 4 weeks; Enavogliflozin 0.30 mg/kg once a day; Saxenda: Liraglutide 0.31 mg/kg once a day; Prep. Ex. 1(2W): ENAVO 5.32 + LIRA 2.17 mg/kg once every 2 weeks; 2(2W): ENAVO 4.20 + LIRA 2.17 mg/kg once every 2 weeks; 2(4W): ENAVO 8.40 + LIRA 4.34 mg/kg once every 4 weeks
[3] = solubility of the two drugs (water, volatile organic solvent)

Compound	body weight reduction rate [1]	FAT [2]	FAT In Tissue [2]	LEAN [2]	water solubility [3]	solubility in a volatile organic solvent (for example, methylene chloride) ([3]; solvent used for manufacturing a microparticle)
OC[C@H]1O[C@@H](c2cc(Cc3ccc(C4CC4)cc3)c(Cl)c3c2CCO3)[C@H](O)[C@@H](O)[C@@H]1O	-3.39%	311.1294 g	38.6281%	490.0705 g		
liraglutide					about 50 mg/mL	not dissolved at all
